From article PMC5474678 (Journal of medicinal chemistry, 2015)

Tested on: MOLM-13 cells
Assay: Cell viability assay
Format: cell-based
Details: Homo sapiens, MOLM-13, 96 h, read-out: IC50 cell growth inhibition MOLM-13

For COc1cc2c(cc1-c1c(C)noc1C)[nH]c1ccnc(-c3c(C4CC4)n[nH]c3C)c12 [Compound 18, 4-(1-(3-Cyclopropyl-5-methyl-1H-pyrazol-4-yl)-8-methoxy-5H-pyrido[4,3-b]indol-7-yl)-3,5-dimethylisoxazole], the IC50 was 66 ± 14 nM.
